Drawing on patent US10336760B2, “Inhibitors of cyclin-dependent kinase 7 (CDK7)” (SYROS PHARMACEUTICALS, INC., priority 2014, dated 2019), this text covers IC50 for 1 molecule.

The chains behind the UniProt entries cited, without tags or fusion partners. Where a name states a change or a piece, a line headed by the entry shows the natural chain unless it says otherwise.
UniProt P50613: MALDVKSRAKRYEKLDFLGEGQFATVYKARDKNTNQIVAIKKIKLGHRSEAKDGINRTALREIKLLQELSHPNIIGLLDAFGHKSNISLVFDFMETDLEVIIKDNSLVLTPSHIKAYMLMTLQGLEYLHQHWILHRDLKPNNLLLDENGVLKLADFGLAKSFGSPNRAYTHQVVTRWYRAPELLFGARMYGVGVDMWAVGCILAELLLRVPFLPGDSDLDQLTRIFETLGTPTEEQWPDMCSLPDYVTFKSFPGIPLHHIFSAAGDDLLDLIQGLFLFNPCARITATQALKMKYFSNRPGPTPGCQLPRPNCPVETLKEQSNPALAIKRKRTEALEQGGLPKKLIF

SMILES strings stand for the structures. pIC50: −log10 of the molar value. A value given as a limit tells only on which side of the number the result lay.

The assay has as its target T1, CDK7 (Homo sapiens, UniProt P50613).
T1 construct: purchased Life Technologies (Grand Island, N.Y.), Adapta kinase assay service
As to the kind of experiment: CDK7 kinase activity, Adapta kinase assay (Life Technologies). To be noted: concentrations from 10 μM down to 0.514 nM, 3-fold serial dilutions, calculated IC50, read-out: CDK7 Inhibition (IC50). It counts as biochemical. The method, then:
Compounds of the invention were assayed for CDK7 activity at Life Technologies (Grand Island, N.Y.) using their commercially available Adapta® kinase assay services. […] Details of this assay, including substrates used, are available on the Life Technologies web site (http://www.lifetechnologies.com/us/en/home/life-science/drug-discovery/target-and-lead-identification-and-validation/kinasebiology/kinase-activity-assays.html).

The term pIC50 denotes the negative decadic logarithm of the IC50, by convention in mol/L.

As for `C=CC(=O)N(CCCCCCNc1cc(NCc2ccccc2)n2ncc(C(C)C)c2n1)C(=O)C=C` [Compound 100, N-acryloyl-N-(6-((7-(benzylamino)-3-isopropylpyrazolo[1,5-a]pyrimidin-5-yl)amino)hexyl)acrylamide], the pIC50 was below 6.00.
